AlphaSeq binding of Ab-14 light chain variants to a spike HR2 peptide

The measurements come from Li et al. 2023 (doi:10.1038/s41467-023-39022-2) through the FLAb antibody collection.

Binding partner: SARS-CoV-2 spike HR2 peptide, sequence PDVDLGDISGINAS.

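The parent was found by panning a naive human phage display library on the peptide. These sequences belong to a second round, designed from the earlier measurements on random variants of the parent. Their group label is 14L_En_Gibbs (En: ensemble of fine-tuned language models; Gibbs: Gibbs sampling). In AlphaSeq, yeast of one mating type display the scFv and yeast of the other type display the target. Mating (16 h, 30 °C) was followed by selection of diploids and sequencing of their barcodes. A regression on co-assayed BCL2-family reference pairs converts the normalised counts of each replicate to an apparent Kd. The assay was run in six technical replicates.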

Parent: Ab-14, a human scFv built as VH, a (GGGGS)3 linker, VL. Only the CDRs of the light chain vary.
VH: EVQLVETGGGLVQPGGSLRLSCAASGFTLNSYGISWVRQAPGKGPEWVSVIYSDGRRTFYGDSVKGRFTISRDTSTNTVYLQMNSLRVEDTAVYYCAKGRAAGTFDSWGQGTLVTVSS
VL: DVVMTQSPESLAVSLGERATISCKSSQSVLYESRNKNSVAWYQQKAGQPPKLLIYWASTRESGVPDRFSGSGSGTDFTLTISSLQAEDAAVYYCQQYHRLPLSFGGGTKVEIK

The parent's light chain CDRs are KSSQSVLYESRNKNSVA, WASTRES, QQYHRLPLS; each variant's own CDRs replace them letter for letter. Affinities are written as log10 Kd with Kd in nM; a lower number is a better binder. A pair that was not seen in that replicate is written "nd"; this usually means weak binding, but a binder can also be missed. The parent sequence was in this pool as ten entries: three were never detected, three once, and four in most replicates, with averages from 0.34 to 2.37. As a blank, each scFv also met three strains without target: over all light chain designs, 4% of these pairings were detected, typically at 2.64 and seldom below 1.59. For each scFv, signals with the empty controls are counted beside the result, with their mean in brackets. The authors averaged sequences with at least three values out of six and counted those with two or fewer as poor binders. The range of this assay differs from that of the first round, and the authors advise against merging the two.

CDR-L1 | CDR-L2 | CDR-L3 | replicates, log10 nM | control signals
RVSSMLMAGGIIYNNIA | NTKVLEY | QQYMRLPLM | 0.73 / 0.38 / 0.36 / 0.37 / 0.61 / 0.48 | 0 of 18
AFTQSIFYGQRDDNSIA | HADELVK | QQYDRFPLA | nd / 2.05 / 2.10 / 1.72 / 2.74 / 2.45 | 0 of 18
VMFMGLYWNNDETYAIA | DVTMKEK | QQYNRLPLM | nd / nd / nd / nd / nd / nd | 0 of 18
QMKASLLQGIYIKDSVA | QSDIREL | QQYEHLPLS | 1.30 / 0.88 / 1.17 / 0.84 / 1.23 / 1.33 | 0 of 18
ALSHPSDSWQIHQNSIA | DDNLSLT | QQYHQLPLS | nd / nd / 1.85 / nd / 3.58 / nd | 1 of 18 (0.71)
QGDMFENYQGNQNASIA | GTTNRLT | QQYQKLPLS | 0.37 / 0.53 / 0.23 / 0.12 / 0.76 / 0.73 | 2 of 18 (2.15)
KLEDSNRWNYRDTNAVA | QASTRAA | QQYQRLPFL | 0.67 / 0.42 / 0.67 / 0.42 / 0.63 / 0.48 | 0 of 18
HMNHEFYGYWNYDQAVA | HESQRLY | QQYSRLPLS | 1.87 / 1.71 / 2.47 / 2.90 / 2.73 / 1.92 | 0 of 18
KLDMNELGQSQNSNCVA | SSAQKCS | QQYSRLPLS | 1.09 / 1.65 / 0.87 / 1.54 / 0.91 / 1.05 | 2 of 18 (2.49)
KIEQILFPYGPSWHSVA | NANTLLA | QQYYMLPLM | 1.62 / 1.33 / 1.55 / 1.21 / 1.10 / 0.79 | 0 of 18
KLGMWMYGPTEAKYAVA | EDEMRVH | QQYDRLPLI | nd / nd / nd / nd / nd / nd | 0 of 18
KLTWSQYNWTSHYQAVA | EQNMRAT | QSYYRLPFS | 2.81 / 3.17 / 2.15 / 2.43 / 2.75 / 3.15 | 0 of 18
KIEEYTKGDRYFQYSIA | QDDIREK | QQYGQLPLT | nd / 1.81 / 1.52 / nd / nd / 2.89 | 1 of 18 (2.17)
MLNGPVEIEQHKWNSVA | SAEILAM | QQYGRLPFS | 0.48 / 0.25 / 0.44 / 0.26 / 0.38 / 0.50 | 0 of 18
KMTKAEQSIGSHQQNIA | DSNKITD | QQYYRLPLS | 0.05 / 0.15 / -0.17 / -0.13 / 0.02 / 0.25 | 0 of 18
MVNQHDEGFKGVKDAIA | NAELREG | QHYGRLPLS | 1.60 / 0.75 / 0.71 / 1.20 / 0.73 / 0.90 | 1 of 18 (2.68)
KLWLAMDMFQGEANAVA | DQQLTRE | QQYARLPLS | nd / nd / nd / 1.61 / nd / nd | 0 of 18
NLMSHQGRYDVWKYSIA | EASIRAS | QQYFRLPLA | 0.46 / 1.37 / 1.68 / 1.61 / 0.49 / 0.87 | 1 of 18 (2.69)
KIQMFFGTLMEQINSIA | NSEVIVQ | QSYFRLPLS | 2.99 / 2.69 / 1.98 / 1.85 / 2.18 / 1.42 | 0 of 18
SFDLTKSGMENERYSIA | ERNVLMT | QDYHRLPLA | nd / nd / nd / nd / 2.81 / 2.55 | 0 of 18
LIMKFMSQLGSARNNIA | GDTKLAQ | QAYYRLPLS | nd / nd / nd / nd / nd / nd | 1 of 18 (1.84)
ATDHQEESGQEWEANVA | QDEQRVE | QQYHHLPLM | nd / 2.04 / nd / nd / nd / nd | 0 of 18
ILMQPQKELGAAKDNIA | DGSIRLD | QQYHRLPLV | 0.05 / 0.22 / 0.00 / 0.09 / 0.26 / 0.24 | 0 of 18
SLAFTLHFNQSGGSNVA | EVQMREQ | QQYFRLPLG | nd / 2.86 / 2.78 / nd / nd / 3.42 | 0 of 18
RLSIPMDYYMENRSSIA | EMTVKEM | QQYQKLPLA | nd / nd / nd / nd / nd / nd | 0 of 18
MLSTTKDYNYTAGNSVA | EVTEKCN | QQYKRLPLS | 1.47 / 1.19 / 0.92 / 0.90 / 1.10 / 1.12 | 2 of 18 (2.73)
HMSDSIEKMASIARNIA | DETTLAM | QQYYRLPLS | 0.12 / 0.39 / 0.57 / 0.11 / 0.17 / 1.28 | 0 of 18
SLMDNIWVEDTYRKAIA | DINVRAD | QQYHRLPLS | -0.08 / 0.09 / -0.22 / -0.38 / 0.02 / -0.02 | 0 of 18
KFDFQWPELNYQDNSIA | GMTVSIE | QQYWRLPLT | 1.85 / nd / nd / nd / nd / nd | 0 of 18
SFTIEGLQQQEQYNSVA | GEQKTVD | QQYGRLPLS | 0.26 / 0.62 / 0.85 / 0.39 / 0.62 / 0.38 | 0 of 18
EIRWQQYDQSEMEANIA | QESTRHQ | QQYFRLPLS | nd / nd / nd / nd / nd / 1.70 | 0 of 18
SLHDINMMGLANNANVA | NASQLFS | QHYFRLPLQ | 0.71 / 0.31 / 1.00 / 0.34 / 0.48 / 0.66 | 0 of 18
RLRFQDLMWSYDANNIA | GATLSIE | QQYGRLPLT | 0.64 / 0.65 / 0.62 / 0.65 / 0.36 / 0.98 | 0 of 18
KIKLSNSVSLRGTRAIA | DGSERAH | QQYHRLPLT | 0.06 / -0.06 / -0.04 / 0.01 / 0.11 / 0.06 | 0 of 18
KFMYSGEYQMHEQNNIA | HGNIKTV | QQYFRLPIY | 0.46 / 0.20 / 0.35 / 0.40 / 0.57 / 0.48 | 0 of 18
KIQSHLSQSFASKNNIA | DRVLSAE | QQYNRLPLV | -0.37 / -0.23 / -0.16 / -0.37 / -0.44 / -0.32 | 1 of 18 (2.23)
ALELFEYQIMKDLNSIA | NTETKTN | QQYVRLPFS | 0.45 / 0.13 / -0.05 / 0.17 / 0.57 / 0.65 | 0 of 18
KLLDWYYGTTAMDSNIA | DQALEMD | QQYDRLPLT | nd / nd / nd / nd / nd / nd | 0 of 18
NFEQKMALYTGDRSSIA | DKTIEAD | QQYSRLPIT | 1.23 / 1.44 / 1.33 / 1.03 / 0.86 / 1.24 | 0 of 18

The 6 strongest on average among those seen in every replicate, once more:

CDR-L1	CDR-L2	CDR-L3	replicates, log10 nM	control signals
KIQSHLSQSFASKNNIA	DRVLSAE	QQYNRLPLV	-0.37 / -0.23 / -0.16 / -0.37 / -0.44 / -0.32	1 of 18 (2.23)
SLMDNIWVEDTYRKAIA	DINVRAD	QQYHRLPLS	-0.08 / 0.09 / -0.22 / -0.38 / 0.02 / -0.02	0 of 18
KIKLSNSVSLRGTRAIA	DGSERAH	QQYHRLPLT	0.06 / -0.06 / -0.04 / 0.01 / 0.11 / 0.06	0 of 18
KMTKAEQSIGSHQQNIA	DSNKITD	QQYYRLPLS	0.05 / 0.15 / -0.17 / -0.13 / 0.02 / 0.25	0 of 18
ILMQPQKELGAAKDNIA	DGSIRLD	QQYHRLPLV	0.05 / 0.22 / 0.00 / 0.09 / 0.26 / 0.24	0 of 18
ALELFEYQIMKDLNSIA	NTETKTN	QQYVRLPFS	0.45 / 0.13 / -0.05 / 0.17 / 0.57 / 0.65	0 of 18